In patent US20160193148A1, “LIPOSOMAL FORMULATIONS FOR THE TREATMENT OF BACTERIAL INFECTIONS” (UNIVERSITY OF GEORGIA RESEARCH FOUNDATION, INC., priority 2013, published 2016):

Tests used:
[1] = Plasma pharmacokinetics after single IV or nebulized dose in foals; conditions: IV 6.6 mg/kg
Procedure: Eight healthy 5-7-week-old Quarter Horse foals were randomly assigned to one of 4 groups using a balanced Latin-square design. Foals were considered healthy on the basis of physical examinations, complete blood cell counts and plasma biochemical profiles. […] The liposome gentamicin formulation was nebulized using Nortev FLEXINEB. For each treatment, gentamicin was administered over a period of 15 minutes. There was a washout period of 7-14 days between each treatment.
For the BAL collection, foals were sedated with xylazine and butorphanol. Concentrations of gentamicin were measured in plasma and in bronchoalveolar cells using HPLC-MS.
Eight foals received a single IV or nebulized dose (6.6 mg/kg bwt) of FG^h or LG in a balanced Latin square design. Beginning at 5-7 weeks of age, every foal received each of the 4 possible drug-route combinations with a 14-day washout period between each administration. Intravenous FG and LG were diluted in 250 ml of sterile 0.9% saline and administered via a jugular catheter as a constant rate infusion over 15 min. Nebulized FG and LG were administered by inhalation over 15 minutes via a commercial equine nebulizer. To ensure equivalent rate of delivery, FG was diluted to the same volume as LG with sterile 0.9% saline. Particle size of nebulized LG was verified using laser diffraction. Blood samples for plasma separation were obtained from a catheter placed in the contralateral jugular vein prior to each drug administration, and at 5, 10, 20, 30, 45 minutes and 1, 1.5, 2, 3, 4, 6, 8, 12, 16, 24 and 48 hours after the end of the 15 minute IV infusion or nebulization period. Bronchoalveolar lavage (BAL) fluid was collected at 2, 4, 8, 24, and 48 hours. Foals were sedated with xylazine hydrochloride (0.5 mg/kg bwt IV) and butorphanol tartrate (0.07 mg/kg bwt IV) prior to collection of BAL fluid. Prior to analysis for gentamicin concentration, blood samples were centrifuged at 400×g for 10 minutes and the resultant plasma frozen at −80° C. until assayed.
Briefly, gentamicin was extracted from plasma (250 μl) and urine (500 μl) using protein precipitation with an equal volume of ice-cold 90:10 acetonitrile: 0.2% formic acid (v/v). Extracted samples were centrifuged (2° C. at 10,000×g for 10 min) twice. Two-hundred microliters of the supernatants were transferred to polypropylene inserts for injection. The supernatant derived from the lyzed BAL cell pellet was transferred to polypropylene inserts for direct injection without further processing. […] An aliquot of the resultant supernatant was then mixed with an equal volume of ice-cold acetonitrile, centrifuged (2° C. at 10,000×g for 10 minutes) and 200 μl was transferred to polypropylene inserts for injection. […]

[2] = Repeated dose IV LG or FG: indices of renal injury and tolerability in foals
Procedure: Subsequently, twelve healthy foals were administered either LG or FG at 6.6 mg/kg IV q 24 hours for 7 doses, and urinary protein, creatinine, γ-glutamyltransferase, and electrolytes were measured on days 0, 3 and 7 to quantify renal injury. Concentrations of gentamicin were measured using HPLC-MS.
Each dose was diluted in 250 ml of sterile 0.9% saline and administered over 15 minutes via an indwelling 14 G catheter placed in a jugular vein. Blood samples for plasma separation and measurement of gentamicin concentrations were obtained on day 1 and on day 7 at the times listed for study 1. Bronchoalveolar lavage fluid was collected 2, 6 and 24 hours after the end of infusion on day 7. Urine was collected the day prior to the first drug dose (day 0) and again 2 hours after the end of the infusion on days 3 and 7. Foals were sedated with xylazine hydrochloride (1.1 mg/kg bwt IV) and anesthetized with ketamine (2.2 mg/kg bwt IV) to allow passage of a urinary catheter using aseptic techniques. Urinalysis was performed and urine and concurrently obtained plasma samples were submitted for measurement of creatinine, γ-glutamyltransferase (GGT), protein, calcium, chloride, magnesium, sodium, and potassium concentrations. Fractional excretion of electrolytes, urinary GGT to creatinine ratio, and urinary protein to creatinine ratios were calculated. Prior to analysis for gentamicin concentration by LC-MS, urine and plasma samples were centrifuged at 400×g for 10 minutes and the supernatant was frozen at −80° C. until assayed.
Normality and equality of variance of the data were assessed with use of the Shapiro-Wilk and Levene tests, respectively. Data that were not normally distributed were log or rank transformed. The paired t test or the Wilcoxon rank sum test was used to compare IV pharmacokinetic variables between LF and FG. The effects of drug (LG vs FG), administration route (IV vs nebulized) and the interactions between drug and administration route on PELF and BAL cell pharmacokinetic variables were assessed using a two-way ANOVA for repeated measurement. For study 2, the effects of drug (LG vs FG), time (day 0, day 3, and day 7), and the interactions between drug and time on renal indices were assessed using a two-way ANOVA with one factor repetition (time). When warranted, multiple pairwise comparisons were done by use of the Holm-Sidak test. The paired t test or the Wilcoxon rank sum test was used to compare IV pharmacokinetic variables obtained on day 1 to those obtained on day 7. Significance was set at P<0.05.

Substance: gentamicin sulfate [Free Gentamicin]
- Vdss ([1]; 8 foals): 0.24 ± 0.11 L/kg
- Vdarea ([1]; 8 foals, Table 4, listed as FG, 6.6 mg/kg): 0.72 ± 0.32 L/kg
- Vdarea ([1]; Table 1, 6.6 mg/kg): 0.7 ± 0.3 L/kg
- Vdarea ([1]; Table 1, listed as free gentamicin, 6.6 mg/kg): 0.72 ± 0.32 L/kg
- Urine GGT/(creatinine × 0.001) ratio ([2]; Day 0 (before first dose)): 2.70 ± 1.62 U/mmol
- Urine protein/(creatinine × 0.001) ratio ([2]; Day 0 (before first dose)): 23.92 ± 4.61 g/mmol
- Urine GGT/(creatinine × 0.001) ratio ([2]; Day 3): 3.04 ± 1.26 U/mmol
- Urine protein/(creatinine × 0.001) ratio ([2]; Day 3): 40.53 ± 48.45 g/mmol
- difference from baseline (day 0) in urine GGT/(creatinine × 0.001) ratio ([2]; Day 3): 0.34 ± 1.62^a U/mmol
- Urine GGT/(creatinine × 0.001) ratio ([2]; Day 7): 8.75 ± 5.33 U/mmol
- Urine protein/(creatinine × 0.001) ratio ([2]; Day 7): 34.68 ± 15.79 g/mmol
- difference from baseline (day 0) in urine GGT/(creatinine × 0.001) ratio ([2]; Day 7): 6.05 ± 4.98^b U/mmol

Marks after values point to notes of the source that are not given here.
